Data as given in patent US20040039053A1, “Use of(-) (3-halomethylphenoxy) (4-halophenyl) acetic acid derivatives for treatment of insulin resistance, type 2 diabetes, hyperlipidemia and hyperuricemia” (priority 2000, published 2004).

By UniProt entry, the sequences of proteins in these tests, tags left out.
UniProt P05177, whole entry: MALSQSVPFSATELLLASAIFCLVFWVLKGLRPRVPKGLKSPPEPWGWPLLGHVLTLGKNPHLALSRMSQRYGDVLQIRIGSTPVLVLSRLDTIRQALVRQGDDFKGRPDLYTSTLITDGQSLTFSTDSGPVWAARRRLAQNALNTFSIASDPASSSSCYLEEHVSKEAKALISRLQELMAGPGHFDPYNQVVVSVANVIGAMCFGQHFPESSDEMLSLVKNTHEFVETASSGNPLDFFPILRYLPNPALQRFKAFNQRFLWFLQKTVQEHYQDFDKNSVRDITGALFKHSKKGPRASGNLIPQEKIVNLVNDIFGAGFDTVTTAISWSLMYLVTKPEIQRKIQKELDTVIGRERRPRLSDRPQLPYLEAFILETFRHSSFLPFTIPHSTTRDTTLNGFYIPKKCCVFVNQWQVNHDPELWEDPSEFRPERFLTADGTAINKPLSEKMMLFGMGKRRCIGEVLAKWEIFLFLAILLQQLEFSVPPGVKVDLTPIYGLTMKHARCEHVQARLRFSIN

Legend:
CYP1A2 [1] = target: T1, CYP1A2 (Homo sapiens, UniProt P05177); conditions: both, 30 min, 5 μM
CYP1A2 [2] = target: T1, CYP1A2; experiment: in vitro; conditions: both, microsomes

With `Cc1nc2c([nH]1)c(=O)n(C)c(=O)n2Cc1ccco1` [FUR, furafylline, reference compound] the “Phenacetin AC Production” value (CYP1A2 [1]) was 54.5 ± 1.3 pmol/mg protein/min and the inhibition at 30 min, 5 μM (CYP1A2 [2]) was 54%.
